Measurements as given in ChEMBL document CHEMBL5584275, “Design, Synthesis, and Evaluation of a New Chemotype Fluorescent Ligand for the P2Y2 Receptor” (ACS Med Chem Lett, 2024).

Chains of the proteins cited; added tags and fusions are not shown. Lines headed by an entry give the natural chain unless they say otherwise; changes in a name come on top.
UniProt P41231: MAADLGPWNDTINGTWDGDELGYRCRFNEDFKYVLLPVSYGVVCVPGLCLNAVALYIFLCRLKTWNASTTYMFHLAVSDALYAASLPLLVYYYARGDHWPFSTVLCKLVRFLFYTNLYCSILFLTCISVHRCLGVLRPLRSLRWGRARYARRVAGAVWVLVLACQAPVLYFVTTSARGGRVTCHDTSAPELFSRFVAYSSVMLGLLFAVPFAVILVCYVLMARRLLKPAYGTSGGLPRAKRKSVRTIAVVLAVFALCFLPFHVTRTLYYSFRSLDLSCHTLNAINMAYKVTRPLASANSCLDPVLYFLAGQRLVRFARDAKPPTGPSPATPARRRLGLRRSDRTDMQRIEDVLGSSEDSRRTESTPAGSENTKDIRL
UniProt P61073, whole entry: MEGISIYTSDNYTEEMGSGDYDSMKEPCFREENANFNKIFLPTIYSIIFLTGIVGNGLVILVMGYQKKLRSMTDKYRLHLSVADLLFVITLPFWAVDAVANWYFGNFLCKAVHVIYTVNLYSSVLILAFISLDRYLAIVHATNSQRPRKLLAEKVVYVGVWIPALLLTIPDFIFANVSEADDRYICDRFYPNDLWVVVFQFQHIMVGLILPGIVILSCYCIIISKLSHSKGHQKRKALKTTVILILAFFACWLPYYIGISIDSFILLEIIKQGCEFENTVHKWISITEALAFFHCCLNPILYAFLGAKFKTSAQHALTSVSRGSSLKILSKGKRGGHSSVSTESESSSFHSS

Columns and labels:
Assay type in all cases: cell membranes
P2Y purinoceptor 2 [1] = target: T1, P2Y purinoceptor 2 (Homo sapiens, UniProt P41231); assay: Binding affinity to NanoLuc-fused P2Y2R (unknown origin) extracted from 1321N1 cell membrane incubated for 1 hr in presence of 7-((5-(bis(4-chlorophenyl)methyl)thiazol-2-yl)amino)heptanoic acid by NanoBRET assay
[2] = target: C-X-C chemokine receptor type 4 (Homo sapiens) (UniProt P61073); assay: Binding affinity to NLuc-tagged CXCR4 (unknown origin) extracted from HEK293 cell membrane incubated for 1 hr in presence of 7-((5-(bis(4-chlorophenyl)methyl)thiazol-2-yl)amino)heptanoic acid by NanoBRET assay
P2Y purinoceptor 2 [3] = target: T1, P2Y purinoceptor 2; assay: Competitive binding affinity to NLuc fused P2Y2R (unknown origin) extracted from 1321N1 cell membrane assessed as inhibition of BRET signal at 1 mM incubated for 1 hr in presence of 2-((5-(7-chloro-2-((3-((2-(5-(3-(5,5-difluoro-7,9-dimethyl-5H-4lambda4,5lambda4-dipyrrolo[1,2-c:2',1'-f][1,3,2]diazabo …; parameters: scale not given: the % may be the effect or the level left

| Activity (P2Y purinoceptor 2 [1]) | Activity [2] | Activity (P2Y purinoceptor 2 [3]) | Compound |
| --- | --- | --- | --- |
| Active |  |  | CN(C)c1ccc2c(-c3ccc(C(=O)N[C@@H](CCCNc4ncc(C(c5ccc(Cl)cc5)c5ccc(Cl)cc5)s4)C(=O)O)cc3C(=O)[O-])c3ccc(=[N+](C)C)cc-3oc2c1 |
| Active | inactive |  | O=C(COc1ccc(/C=C/C2=[N+]3C(=Cc4ccc(-c5cccs5)n4[B-]3(F)F)C=C2)cc1)NCCCCCC(=O)N[C@@H](CCCNc1ncc(C(c2ccc(Cl)cc2)c2ccc(Cl)cc2)s1)C(=O)O |
| Active |  |  | O=C(COc1ccc(/C=C/C2=[N+]3C(=Cc4ccc(-c5cccs5)n4[B-]3(F)F)C=C2)cc1)NCCCCCC(=O)N[C@@H](CCNc1ncc(C(c2ccc(Cl)cc2)c2ccc(Cl)cc2)s1)C(=O)O |

The remaining lines, values behind:

| Compound | Activity (P2Y purinoceptor 2 [1]) | Activity [2] | Activity (P2Y purinoceptor 2 [3]) |
| --- | --- | --- | --- |
| Cc1cc(C)n2c1C=C1C=CC(CCC(=O)NCCCCCC(=O)N[C@@H](CCNc3ncc(C(c4ccc(Cl)cc4)c4ccc(Cl)cc4)s3)C(=O)O)=[N+]1[B-]2(F)F | Active |  |  |
| CN(C)c1ccc2c(-c3ccc(C(=O)N[C@@H](CCNc4ncc(C(c5ccc(Cl)cc5)c5ccc(Cl)cc5)s4)C(=O)O)cc3C(=O)[O-])c3ccc(=[N+](C)C)cc-3oc2c1 | Active |  |  |
| CCOCCNc1ncc(C(c2ccc(Cl)cc2)c2ccc(Cl)cc2)s1 |  |  | 44% |
| Cc1cc(C)n2c1C=C1C=CC(CCC(=O)NCCCCCC(=O)N[C@@H](CCCNc3ncc(C(c4ccc(Cl)cc4)c4ccc(Cl)cc4)s3)C(=O)O)=[N+]1[B-]2(F)F | Active |  |  |

Active and inactive are the calls of the source. No cut-off for these calls is given here.
